Measurements from PubChem BioAssay AID624169 (The Scripps Research Institute Molecular Screening Center, 2012).
The entries are a selection whose mix differs from that of the whole data set. Activity calls are given as the source filed them.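 The calls were made as follows: active = activation above a run cutoff, the mean activation of all tested compounds plus 3 SD (cut at about 14% in these data); inactive = the rest.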

Sequences of proteins named here, by UniProt entry; tags and fusion partners are left off.
UniProt P35363, whole entry: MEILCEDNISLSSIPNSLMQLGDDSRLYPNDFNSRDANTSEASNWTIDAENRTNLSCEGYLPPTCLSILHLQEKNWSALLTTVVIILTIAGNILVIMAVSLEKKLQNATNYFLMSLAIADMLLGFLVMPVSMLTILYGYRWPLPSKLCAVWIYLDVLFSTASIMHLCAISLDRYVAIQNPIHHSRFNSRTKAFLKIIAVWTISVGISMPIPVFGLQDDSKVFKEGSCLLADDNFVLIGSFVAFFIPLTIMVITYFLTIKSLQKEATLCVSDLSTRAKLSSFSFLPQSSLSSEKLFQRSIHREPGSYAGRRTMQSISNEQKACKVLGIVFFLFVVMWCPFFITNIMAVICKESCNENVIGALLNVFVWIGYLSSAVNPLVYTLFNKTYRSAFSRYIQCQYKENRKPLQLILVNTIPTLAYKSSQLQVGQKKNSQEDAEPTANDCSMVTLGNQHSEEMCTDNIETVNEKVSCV

These molecules were tested against 5-hydroxytryptamine receptor 2A (Mus musculus) (UniProt P35363) (assay: activation of mouse 5-HT2A receptor – cell-based, luminescence, primary screen (AID 624169;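 also: 0% = plate median of compound wells and 100% = 30 µM serotonin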)). Conditions: CHO-K1 mHTR2A beta-arrestin complementation, at 7.6 µM, active compounds read high, percent of 30 µM serotonin response.

Compound | activation
CCC(=O)N(c1ccccc1)C1(COC)CCN(CCn2nnn(CC)c2=O)CC1 | inactive: -2.56%
CCC(=O)N(c1ccccc1)C1(COC)CCN(CCc2cccs2)CC1 | inactive: -1.17%
